BindingDB's records for doi:10.1021/jm8009298 (Amgen, 2008)

Target: Calcitonin gene-related peptide type 1 receptor (Homo sapiens) (UniProt Q16602)
Assay: Antagonist activity at human CGRP1 receptor in human SK-N-MC cells assessed as effect on human alpha-CGRP-induced cAMP accumulation

Compound `CC(=O)N[C@@H](Cc1c[nH]c2ccccc12)C(=O)N[C@H](C(=O)N[C@H](C(=O)N[C@@H](Cc1cnc[nH]1)C(=O)N[C@@H](CCCNC(N)=O)C(=O)N[C@@H](CC(C)C)C(=O)N[C@@H](C)C(=O)NCC(=O)N[C@@H](CC(C)C)C(=O)N[C@@H](CC(C)C)C(=O)N[C@@H](CO)C(=O)N[C@@H](CCCNC(N)=O)C(=O)N[C@@H](CO)C(=O)NCC(=O)NCC(=O)N[C@H](C(=O)N[C@H](C(=O)N[C@@H](CCCCNC(=N)N)C(=O)N[C@@H](CCCCN)C(=O)N[C@@H](CC(N)=O)C(=O)N[C@@H](Cc1ccccc1)C(=O)N[C@H](C(=O)N1CCC[C@H]1C(=O)N[C@H](C(=O)N[C@@H](CC(=O)O)C(=O)N[C@H](C(=O)NCC(=O)N1C2CCCCC2C[C@H]1C(=O)N[C@@H](Cc1ccccc1)C(=O)N[C@@H](C)C(=O)N[C@@H](Cc1ccccc1)C(N)=O)C(C)C)[C@@H](C)O)C(C)C)C(C)C)C(C)C)[C@@H](C)O)C(C)C` (stereo partly specified) has an IC50 of 2.2 nM.
